Columns and labels:
[1] = molecular target: HLA-A*0201 heavy chain with β2-microglobulin
[2] = molecular target: HLA-A*0201 heavy chain with β2-microglobulin; assay: circular dichroism

NS3_(1406(3S,4G,7L)-1415) peptide
apparent Tm by DSF [1]: 61.1 °C
apparent Tm by CD [2]: 61 °C

Reference: paper PMC4837003
